Results reported in patent EP3970494A1 (priority 2020, dated 2022).

Assays:
Phakopsora pachyrhizi [1] = assay: Protective control of soybean rust on soybeans, inoculation 2 days after treatment (PHAKPA P2); format: in vivo; conditions: soybean seedlings inoculated 2 days after treatment, strain with F129L in cytochrome b, % diseased leaf area, untreated controls usually higher than 85 %; for PHAKPA Disease level (%) P2 at 4 ppm: 4 ppm spray; for PHAKPA Disease level (%) P2 at 16 ppm: 16 ppm spray
Phakopsora pachyrhizi [2] = assay: Protective control of soybean rust on soybeans, inoculation six days after treatment (PHAKPA P6); format: in vivo; conditions: soybean seedlings inoculated six days after treatment, strain with F129L in cytochrome b, % diseased leaf area, untreated controls usually higher than 85 %; for PHAKPA Disease level (%) P6 at 4 ppm: 4 ppm spray; for PHAKPA Disease level (%) P6 at 16 ppm: 16 ppm spray

SMILES | PHAKPA Disease level (%) P2 at 4 ppm (Phakopsora pachyrhizi [1]) [%] | PHAKPA Disease level (%) P2 at 16 ppm (Phakopsora pachyrhizi [1]) [%] | PHAKPA Disease level (%) P6 at 4 ppm (Phakopsora pachyrhizi [2]) [%] | PHAKPA Disease level (%) P6 at 16 ppm (Phakopsora pachyrhizi [2]) [%]
CNC(=O)/C(=N/OC)c1cccc(C)c1CO/N=C(\C)c1ncccc1C(F)F [Example 33] | 57 | 4.0 | 78 | 14
CO/N=C(/C(=O)OC)c1cccc(C)c1CO/N=C(\C)c1nccs1 [Example 128] | 100 | 100 | 100 | 93
CNC(=O)/C(=N/OC)c1cccc(C)c1CO/N=C(\C)c1cscn1 [Example 127] | 97 | 33 | 90 | 73
CO/N=C(/C(=O)OC)c1cccc(C)c1CO/N=C(\C)c1cnc(C(F)(F)F)cn1 [Example 96, Methyl (2E)-2-methoxyimino-2-[3-methyl-2-[[(E)-1-[5-(trifluoromethyl)pyrazin-2-yl]ethylideneamino]oxymethyl]phenyl]acetate] | 73 | 7 | 77 | 10
CO/N=C(/C(=O)OC)c1cccc(C)c1CO/N=C(\C)c1cc(C(F)(F)F)cc(C)n1 [Example 46] | 48 | 21 | 48 | 9
CO/N=C(/C(=O)OC)c1cccc(C)c1CO/N=C(\C)c1cc(-c2ccccc2)sn1 [Example 36] | 30 | 32 | 28 | 28
C#Cc1cnc(/C(C)=N/OCc2c(C)cccc2/C(=N\OC)C(=O)OC)s1 [Example 59] | 87 | 30 | 77 | 37
CNC(=O)/C(=N/OC)c1cccc(C)c1CO/N=C(\C)c1ncc(C(F)(F)F)s1 [Example 53, (2E)-2-Methoxyimino-N-methyl-2-[3-methyl-2-[[(E)-1-[5-(trifluoromethyl)thiazol-2-yl]ethylideneamino]oxymethyl]phenyl]acetamide] | 11 | 1 | 12 | 1
C#Cc1cnc(/C(C)=N/OCc2c(C)cccc2/C(=N\OC)C(=O)NC)s1 [Example 61] | 90 | 33 | 100 | 100
CO/N=C(/C(=O)OC)c1cccc(C)c1CO/N=C(\C)c1cncc(F)c1 [Example 75] | 100 | 97 | 100 | 97
CO/N=C(/C(=O)OC)c1cccc(C)c1CO/N=C(\C)c1cccc(OC)n1 [Example 6] | 60 | 32 | 73 | 67
CO/N=C(/C(=O)OC)c1cccc(C)c1CO/N=C(\C)c1cc(C(F)F)ccn1 [Example 34] | 28 | 7 | 26 | 10
CNC(=O)/C(=N/OC)c1cccc(C)c1CO/N=C(/c1nccs1)C1CC1 [Example 110] | 77 | 6 | 67 | 25
CO/N=C(/C(=O)OC)c1cccc(C)c1CO/N=C(\C)c1cncc(C(F)(F)F)c1 [Example 84, methyl (2E)-2-methoxyimino-2-[3-methyl-2-[[(E)-1-[5-(trifluoromethyl)-3-pyridyl]ethylideneamino]oxymethyl]phenyl]acetate] | 100 | 100 | 90 | 83
